Values quoted from earlier work as cited in patent publication US20060147495A1, “Amino acid-based nutritional formulation” (priority 2004, published 2006).

Details: in deionised water at 12° C.

solubility: about 2 g/100 ml
Substance: calcium glycerophosphate
